Data on one compound can be found in patent publication US20220273926A1, “DRUG DELIVERY USING MICRONEEDLE ARRAYS” (BOARD OF REGENTS OF THE UNIVERSITY OF NEBRASKA, priority 2019, published 2022).

Like-named read-outs stand apart in the source and are kept apart here.

The text on data set [1]:
Agarose and other agar-based hydrogels have been widely used as skin models in previous studies^37,38. […] The intensity is also plotted quantitatively against the depth of penetration (FIG. 15C).

For data set [2] the following is noted: after 180 min, target 20 μg/mL. An excerpt: The intradermal drug delivery kinetics were further evaluated by developing an in vitro model mimicking the structure of wounds in which eschar and granulation tissue separates the endothelial cells from the outside environment. This model, illustrated schematically in FIG. 2a, consisted of a cell culture insert with a porous membrane covered by agarose (3% w/v) with ˜2 mm thickness, and the bottom well represented the environment of endothelial cells.
Assessment of release kinetics: To mimic the chronic wound tissue, 12-well cell culture inserts were filled with 150 μL of 3% (w/v) agarose. […] Inserts were divided into 3 groups (4 replicate/group) with respect to the method of delivery, including topical, MNA, and LJI. To measure the concentration of the delivered solution, at each time point 100 μL was removed and then replaced with the same volume of fresh PBS. After collecting all samples, the concentration was measured by a plate reader (Cytation 5, BioTek) followed by data analysis to extract the related release graphs. In the case of BSA, measurement process was followed based on manufacturer's protocol.

Regarding `CCN(CC)c1ccc2c(-c3ccccc3C(=O)O)c3ccc(=[N+](CC)CC)cc-3oc2c1.[Cl-]` [rhodamine B], the “distribution profile in the skin model” value in data set [1] (LJI) is reported as “deepest penetration of the dye”; in data set [1] (MNAs, compared to topical administration) it was “delivered the solution deeper into the skin model while showing a relatively uniform distribution area”. The “delivered into the bottom chamber (overall efficiency of delivery)” value in data set [2] (LJI) is listed as 75%; in data set [2] (MNAs) it was around 60%; in data set [2] (topical (TOP)) it was “less than 15%”.
